Assay [1] relates to A549 lung tumor xenograft. In words: Antitumor study in A549 lung tumor xenograft mouse model. It is filed as in vivo, mice. As to conditions: 40 mg/kg intraperitoneal, every two days for seven times.
In a further assay the test system is P-AKT. In words: Western blot of P-AKT in A549 tumor lysates. It is filed as in vivo, mice. As to conditions: C225 40 mg/kg. The protocol: Based upon the observed strong inhibition of cell proliferation and migration, the ability to inhibit EGFR cell signaling pathways in vitro, as well as the remarkable stability against proteolytic degradation, the antitumor activity of M-2-5 in a A549 lung tumor xenograft mouse model was evaluated in vivo. […] After another 6 days post injection, mice were sacrificed, and tumors were resected. […] To confirm the expression level of P-EGFR and downstream signaling, the total proteins were extracted from tumor tissues in each group and subjected to immunoblotting of P-EGFR, P-ARK and P-ERK. […] In addition, the phosphorylation level of EGFR in the A549 tumor sections was analyzed by immunohistochemical staining. […] Together with its similar function to monoclonal antibody and its high resistance toward proteolytic degradation, it could be further investigated for promising clinical anti-cancer drug development.
For the detection of phosphorylated EGFR, AKT and ERK in tumors in vivo, a portion of the tumor (80 mg) was immersed in 500 μL extraction buffer (50 mM Tris-HCl (pH 7.4), 150 mM NaCl, 1% NP-40, 0.25% Na-deoxycholate, Protease Inhibitor, SDS 0.1-2%), and tubes were vortexed briefly. […] The supernatant containing soluble proteins was transferred to a new tube and an aliquot was taken for the quantification and the further western blot analysis.
(In western blotting, separated proteins are transferred to a membrane and probed.)

In the case of cetuximab [C225], in assay [1], the “tumor volume versus PBS group” value was “significant reduction in tumor volume”. Moreover, the “P-AKT level in tumor tissue” value with P-AKT is given as “dramatic decrease”.

Values taken from patent publication US12612431B2, “Cyclic compounds for treating cancer” (University of South Florida, priority 2021, dated 2026).
